Results from patent US9522903B2 (priority 2010, dated 2016).

Tested on: murine model of acute chlorine inhalation injury (CILI)
Test: Murine model of acute chlorine inhalation injury (CILI)
Details: 3 mg to 80 mg per dose, IP at 2 h and 6 h after Cl2 exposure

Substance: 2-cyano-1-(1-hydroxy-2,2,5,5-tetramethylpyrrolidin-3-yl)-3-(pyridin-3-yl)guanidine
- lung injury, dose-response: attenuated lung injury in a dose-dependent manner
